Measured values published in patent publication US9708279B2, “2-acylaminothiazoles for the treatment of cancer” (UNIVERSITA′ DEGLI STUDI DI MILANO-BICOCCA, priority 2013, dated 2017).

By UniProt entry, the sequences of proteins in these tests, tags left out. Residues count along the entry.
UniProt Q9UM73, 19-1620 L1196M: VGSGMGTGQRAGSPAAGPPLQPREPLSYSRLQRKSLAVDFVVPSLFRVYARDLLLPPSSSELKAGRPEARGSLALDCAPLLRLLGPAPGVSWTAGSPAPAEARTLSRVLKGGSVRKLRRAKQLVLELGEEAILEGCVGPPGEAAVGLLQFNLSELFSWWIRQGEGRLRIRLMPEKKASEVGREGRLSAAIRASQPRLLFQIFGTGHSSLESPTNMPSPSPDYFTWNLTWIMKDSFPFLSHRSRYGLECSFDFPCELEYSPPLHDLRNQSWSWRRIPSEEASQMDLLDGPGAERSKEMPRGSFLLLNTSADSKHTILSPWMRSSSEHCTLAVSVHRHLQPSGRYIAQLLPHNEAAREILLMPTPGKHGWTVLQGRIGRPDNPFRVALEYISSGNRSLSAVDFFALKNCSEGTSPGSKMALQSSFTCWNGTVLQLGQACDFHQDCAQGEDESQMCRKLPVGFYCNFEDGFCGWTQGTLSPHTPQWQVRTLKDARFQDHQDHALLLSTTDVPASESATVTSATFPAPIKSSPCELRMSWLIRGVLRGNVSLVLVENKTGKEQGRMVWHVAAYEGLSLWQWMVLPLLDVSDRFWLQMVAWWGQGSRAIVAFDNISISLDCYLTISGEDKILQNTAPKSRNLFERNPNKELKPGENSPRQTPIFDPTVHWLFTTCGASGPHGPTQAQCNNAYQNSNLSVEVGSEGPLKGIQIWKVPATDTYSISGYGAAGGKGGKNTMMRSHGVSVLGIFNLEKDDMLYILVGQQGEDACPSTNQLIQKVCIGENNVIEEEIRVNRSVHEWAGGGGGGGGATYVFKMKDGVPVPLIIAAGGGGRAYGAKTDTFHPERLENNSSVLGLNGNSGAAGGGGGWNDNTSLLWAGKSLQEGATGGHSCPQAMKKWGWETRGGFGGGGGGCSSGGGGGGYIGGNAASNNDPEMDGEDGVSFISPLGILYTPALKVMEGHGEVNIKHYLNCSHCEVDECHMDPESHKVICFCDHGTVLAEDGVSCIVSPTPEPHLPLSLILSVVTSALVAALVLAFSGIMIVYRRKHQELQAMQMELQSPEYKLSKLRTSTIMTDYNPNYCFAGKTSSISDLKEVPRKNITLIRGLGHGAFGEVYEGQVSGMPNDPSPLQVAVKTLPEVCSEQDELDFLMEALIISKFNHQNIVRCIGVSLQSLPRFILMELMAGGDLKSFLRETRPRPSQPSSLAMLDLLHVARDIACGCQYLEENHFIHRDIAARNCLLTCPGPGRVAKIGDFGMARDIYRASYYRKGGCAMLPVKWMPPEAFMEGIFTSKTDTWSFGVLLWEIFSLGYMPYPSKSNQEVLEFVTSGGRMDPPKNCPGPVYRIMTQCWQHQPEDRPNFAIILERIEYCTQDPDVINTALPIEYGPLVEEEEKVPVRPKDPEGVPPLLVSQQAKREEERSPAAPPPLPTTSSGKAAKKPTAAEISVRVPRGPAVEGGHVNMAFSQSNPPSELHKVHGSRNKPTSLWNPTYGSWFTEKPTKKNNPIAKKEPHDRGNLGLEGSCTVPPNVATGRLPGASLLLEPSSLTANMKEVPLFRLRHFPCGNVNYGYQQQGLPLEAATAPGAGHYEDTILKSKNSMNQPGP

How the values were obtained:
[1] = target: recombinant L1196M mutated ALK kinase (rALK) (Homo sapiens (Human), UniProt Q9UM73, L1196M); test: ELISA-based in vitro kinase assay, L1196M ALK; format: biochemical; settings: 0.3 mM ATP
[2] = test system: BaF3 cells transformed with the mutated oncogenic fusion protein NPM/ALK carrying the substitution L1196M; test: Tritiated thymidine uptake cell proliferation assay, BaF3 NPM/ALK L1196M; format: cell-based; settings: for IC50: BaF3 NPM/ALK L1196M cells, 72 h, 3H-thymidine uptake; for Selectivity Index (1196M): parental BaF3 versus BaF3 NPM/ALK L1196M

SMILES	IC50 [1]	IC50 [2]	Selectivity Index (1196M) [2]
CN1CCN(C(=O)c2ccc(-c3ccc(C(=O)Nc4nc(-c5cccc(C#Cc6ccccc6OC(F)(F)F)c5)cs4)o3)cc2)CC1 [Example 43, 5-(4-(4-methylpiperazine-1-carbonyl)phenyl)-N-(4-(3-((2-(trifluoromethoxy)phenyl)ethynyl)phenyl)thiazol-2-yl)furan-2-carboxamide]	1300 nM	860 nM	5
CC(C)[Si](C#Cc1cccc(-c2csc(NC(=O)c3ccc(CNCCN(C)C)cc3)n2)c1)(C(C)C)C(C)C [Example 44, 4-(((2-(dimethylamino)ethyl)amino)methyl)-N-(4-(3-((triisopropylsilyl)ethynyl)phenyl)thiazol-2-yl)benzamide]	65000 nM		
CN1CCN(C(=O)c2ccc(-c3ccc(C(=O)Nc4nc(-c5cccc(C#Cc6cc(C(F)(F)F)cc(C(F)(F)F)c6)c5)cs4)o3)cc2)CC1 [Example 34, N-(4-(3-((3,5-bis(trifluoromethyl)phenyl)ethynyl)phenyl)thiazol-2-yl)-5-(4-(4-methylpiperazine-1-carbonyl)phenyl)furan-2-carboxamide]	> 100000 nM	1700 nM	2
O=C(Nc1nc(-c2cccc(C#Cc3cc(C(F)(F)F)cc(C(F)(F)F)c3)c2)cs1)c1ccc(CN2CCOCC2)cc1 [Example 39, N-(4-(3-((3,5-bis(trifluoromethyl)phenyl)ethynyl)phenyl)thiazol-2-yl)-4-(morpholinomethyl)benzamide]	27000 nM	1300 nM	26
Cc1ccc(-c2csc(NC(=O)c3ccc(CN4CCN(C)CC4)cc3)n2)cc1C#Cc1ccc(F)cc1 [Example 9, N-(4-(3-((4-fluorophenyl)ethynyl)-4-methylphenyl)thiazol-2-yl)-4-((4-methylpiperazin-1-yl)methyl)benzamide]	8000 nM	900 nM	4
COc1ccc(C#Cc2cc(-c3csc(NC(=O)c4ccc(CN5CCN(C)CC5)cc4)n3)ccc2C)cc1 [Example 6, N-(4-(3-((4-methoxyphenyl)ethynyl)-4-methylphenyl)thiazol-2-yl)-4-((4-methylpiperazin-1-yl)methyl)benzamide]	6300 nM	2300 nM	3
